Experimental data as given in ChEMBL document CHEMBL1152554, “Synthesis and pharmacological evaluation of 6-naltrexamine analogs for alcohol cessation” (Bioorg Med Chem, 2009).

Chains of the proteins cited; added tags and fusions are not shown. Lines headed by an entry give the natural chain unless they say otherwise; changes in a name come on top.
UniProt P41143, whole entry: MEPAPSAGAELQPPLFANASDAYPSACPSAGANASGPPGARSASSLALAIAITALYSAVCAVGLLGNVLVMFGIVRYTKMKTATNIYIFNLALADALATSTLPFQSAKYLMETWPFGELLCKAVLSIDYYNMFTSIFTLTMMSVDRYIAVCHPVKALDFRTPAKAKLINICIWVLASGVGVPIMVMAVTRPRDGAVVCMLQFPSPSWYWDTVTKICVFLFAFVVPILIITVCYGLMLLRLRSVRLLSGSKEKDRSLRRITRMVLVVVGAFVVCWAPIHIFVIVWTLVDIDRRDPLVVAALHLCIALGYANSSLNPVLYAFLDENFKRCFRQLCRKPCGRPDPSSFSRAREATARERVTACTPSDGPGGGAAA
UniProt P41145: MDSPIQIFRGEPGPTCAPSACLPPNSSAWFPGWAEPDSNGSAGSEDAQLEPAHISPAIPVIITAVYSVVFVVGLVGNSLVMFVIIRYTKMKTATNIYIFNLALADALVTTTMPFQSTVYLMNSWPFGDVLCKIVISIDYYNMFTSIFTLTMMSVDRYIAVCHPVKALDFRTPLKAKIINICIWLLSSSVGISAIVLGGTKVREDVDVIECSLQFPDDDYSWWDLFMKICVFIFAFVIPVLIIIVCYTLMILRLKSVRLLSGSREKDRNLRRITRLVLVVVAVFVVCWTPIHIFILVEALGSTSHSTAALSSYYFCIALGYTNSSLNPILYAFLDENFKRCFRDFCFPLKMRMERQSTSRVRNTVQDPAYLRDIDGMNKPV
UniProt P41146: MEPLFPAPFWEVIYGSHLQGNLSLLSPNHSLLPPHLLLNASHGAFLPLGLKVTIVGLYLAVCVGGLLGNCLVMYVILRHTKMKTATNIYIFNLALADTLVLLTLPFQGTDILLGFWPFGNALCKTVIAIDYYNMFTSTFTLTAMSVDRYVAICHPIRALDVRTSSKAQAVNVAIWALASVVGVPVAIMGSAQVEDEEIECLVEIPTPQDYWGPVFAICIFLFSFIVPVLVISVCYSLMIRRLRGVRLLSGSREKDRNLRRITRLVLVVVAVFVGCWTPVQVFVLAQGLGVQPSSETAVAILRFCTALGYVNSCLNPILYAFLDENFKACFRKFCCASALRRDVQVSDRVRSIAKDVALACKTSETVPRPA

Tests used:
Rattus norvegicus [1] = organism: Rattus norvegicus; assay: animal or person; conditions: Wistar, sc
[2] = target: Delta-type opioid receptor (Homo sapiens, UniProt P41143)
[3] = target: Kappa-type opioid receptor (Homo sapiens, UniProt P41145)
Rattus norvegicus [4] = assay: Inhibition of saccharin intake in Wistar rat at 6.25 mg/kg, sc by saccharin-self administration test; format: functional; design: scale not given: the % may be the effect or the level left; conditions: route subcutaneous
Nociceptin receptor = Nociceptin receptor (Homo sapiens, UniProt P41146); assay: Activity at NOP expressed in HEK293 cells assessed as stimulation of [35S]GTPgammaS binding relative to basal level; format: functional, cell-based

With `O=C(N[C@@H]1CC[C@@]2(O)[C@H]3Cc4ccc(O)c5c4[C@@]2(CCN3CC2CC2)[C@H]1O5)c1ccc(Br)cc1.O=C(O)C(=O)O` the ED50 (Rattus norvegicus [1]) was 0.042 mg/kg.
`O=C(N[C@@H]1CC[C@@]2(O)[C@H]3Cc4ccc(O)c5c4[C@@]2(CCN3CC2CC2)[C@H]1O5)c1ccc(C(F)(F)F)cc1.O=C(O)C(=O)O` showed an EC50 [2] of over 10000 nM, an EC50 [3] of over 10000 nM and an ED50 (Rattus norvegicus [1]) of 0.019 mg/kg. The Activity (Rattus norvegicus [4]) was 23.8%.
Work on `O=C(N[C@@H]1CC[C@@]2(O)[C@H]3Cc4ccc(O)c5c4[C@@]2(CCN3CC2CC2)[C@H]1O5)c1ccc(I)cc1.O=C(O)C(=O)O` yielded an EC50 [2] of over 10000 nM, an EC50 [3] of over 10000 nM and an ED50 (Rattus norvegicus [1]) of 0.038 mg/kg.
For `O=C(N[C@@H]1CC[C@@]2(O)[C@H]3Cc4ccc(O)c5c4[C@@]2(CCN3CC2CC2)[C@H]1O5)c1ccc(Cl)cc1`, the Emax (Nociceptin receptor) was 0%.
`Cc1ccc(C(=O)N[C@@H]2CC[C@@]3(O)[C@H]4Cc5ccc(O)c6c5[C@@]3(CCN4CC3CC3)[C@H]2O6)cc1.O=C(O)C(=O)O` showed an EC50 [2] of over 10000 nM, an EC50 [3] of 2.4 nM and an ED50 (Rattus norvegicus [1]) of 0.25 mg/kg.
In the case of `CC(C)(C)c1ccc(C(=O)N[C@@H]2CC[C@@]3(O)[C@H]4Cc5ccc(O)c6c5[C@@]3(CCN4CC3CC3)[C@H]2O6)cc1.O=C(O)C(=O)O`, the EC50 [2] is reported as 0.3 nM, the EC50 [3] is reported as 0.4 nM and the ED50 (Rattus norvegicus [1]) is reported as 0.05 mg/kg.
